Tests used:
Na+/K+-ATPase = target: T1, Na+/K+-ATPase (Canis lupus familiaris, UniProt P50997); test: Na+/K+-ATPase inhibition, enzyme preparation from dog kidney; assay type: biochemical
T1 construct: enzyme preparation from dog kidney (Sigma); purchased Sigma; host or cells: dog kidney tissue preparation
Experimental: Anti-prolerafitive IC50 values were determined by MTS assay using an A549 cell line. Na^+/K^+-ATPase inhibition IC50 values were obtained using enzyme preparation from dog kidney (Sigma).

[1] = steady state delivery in mice
[2] = amount to normalize tachycardia/fibrillation; cited from earlier work

C[C@@H]1OC(OC2C=C3CCC4C(CC[C@]5(C)[C@@H](c6ccc(=O)oc6)CC[C@]45O)[C@@]3(C)CC2)[C@H](O)[C@H](O)[C@H]1O (stereo partly drawn) [BNC-4, proscillaridin]
potency relative to BNC-151 (Na+/K+-ATPase): about 10 times | therapeutic serum concentration required to achieve >60% TGI [1]: about 48+23 ng/ml | optimal therapeutic level (EDp.o.) [2]: ~5 mg

Reference: patent US20070105790A1, “Pancreatic cancer treatment using Na+/K+ ATPase inhibitors” (Bionaut Pharmaceuticals, Inc., priority 2004, published 2007)
